Results published in article PMC5050111 (Cancer discovery, 2016).

What was measured:
ALK L1198F = settings: dual ALK L1198F+C1156Y; cited from earlier work
[1] = system: ALK-positive NSCLC patients; experiment: Objective response; assay type: in vivo; settings: 21 patients on crizotinib in a clinical trial, RECIST version 1.0
ALK F1174 mutations = settings: prior reports; cited from earlier work
ALK I1171 mutations = settings: cited from earlier work

SMILES	effect of ALK L1198F on sensitivity (ALK L1198F)	objective response [1] [%]	sensitivity of ALK F1174 mutations (ALK F1174 mutations)	sensitivity of ALK I1171 mutations (ALK I1171 mutations)
C[C@@H](Oc1cc(-c2cnn(C3CCNCC3)c2)cnc1N)c1c(Cl)ccc(F)c1Cl [crizotinib]	re-sensitized cells to crizotinib	86	–	–
CCc1cc2c(cc1N1CCC(N3CCOCC3)CC1)C(C)(C)c1[nH]c3cc(C#N)ccc3c1C2=O [alectinib]	–	–	remain sensitive	mediate resistance
